Values of other authors, collected in article PMC12064631 (Clinical Pharmacokinetics, 2025).

How the values were obtained:
[1] = tested on: DPP-4 activity in the plasma; conditions: plasma of humans, rodents, dogs, and monkeys, range over species; cited from earlier work
[2] = tested on: DPP-4; conditions: single dose of 25 mg, patients with type 2 diabetes; cited from earlier work

| Structure (SMILES) | IC50 [1] | Emax,DPP-4 [2] |
| --- | --- | --- |
| N[C@@H](CC(=O)N1CCn2c(nnc2C(F)(F)F)C1)Cc1cc(F)c(F)cc1F [sitagliptin, reference compound] | 0.0123 to 0.0644 µM |  |
| Cn1c(=O)cc(N2CCC[C@@H](N)C2)n(Cc2ccccc2C#N)c1=O [alogliptin] |  | 92.7% |
